Experimental melting point values from OPERA 2.9

Values as listed in the OPERA 2.9 repository of K. Mansouri.

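The OPERA project collected these measurements from public sources as training and test data for property models. One number stands for a compound and property, with no spread given. Method, purity and exact conditions of the single measurements are not given. A value may pool stereoisomers or salt forms, and the file does not say which form was measured. Some entries may be limits or estimates that an upstream database listed as plain numbers.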

Melting points are in °C.

MP (°C)	SMILES
72	O=C(CCl)Nc1cc(C(F)(F)F)ccc1Cl
123	O=C(O)CCCN1C(=S)CSC1=S
194.5	Cl.FC1(F)CNCC1(F)F
180	CS(=O)(=O)Nc1nc(CC(=O)O)cs1
166	COc1ccc(C(=O)NCC(=O)O)cc1
136	CN(C)S(=O)(=O)c1cc(Cl)c(N)cc1Cl
138	Clc1nc(-c2cccnc2)nc2sc3c(c12)CCCC3
181	Cc1sc(NC(=O)CCl)c(C#N)c1C
114.5	O=C(O)C(O)c1ccccc1F (configuration not stated)
66	C=CCNC(=O)CC#N
-22	CC(C)COC(=O)C1CCCCC1C(=O)OCC(C)C (configuration not stated)
94	CN(C)C(=O)c1ccc(C#N)cc1
206	CC(C)c1ccc(-c2nnc(N)s2)cc1
50	CC(=O)CC(=O)c1ccc(F)cc1
265	NC(=S)c1ccc(C(=O)O)cc1
-11.14	CCCC(=O)OC/C=C(\C)CCC=C(C)C
132	O=C(O)CCN1C(=O)CCC1=O
169	NC(=O)c1cc(N2CCCCC2)ccc1N
169	Oc1c(Cl)cc(Br)cc1Cl
229.9	O=P([O-])(OCc1ccccc1)OCc1ccccc1.[K+]
132	CC(C)(C)OC(=O)Nc1ccc(F)cc1N
250	CN(C)S(=O)(=O)c1ccc(C(=O)O)cc1
67	Clc1ccc(Cn2cncn2)cc1
75	Cc1cc(CC#N)c(C)n1-c1ccc(Cl)cc1
86	O=C(O)CCOc1cccc(Cl)c1
145	NNc1ccc(-c2ccccc2)nn1
150	Cc1cc(C=O)c(C)n1-c1cccc([N+](=O)[O-])c1
187.5	CCN(CC[N+](C)(C)CC(C)O)c1ccc(/N=N/c2ccc([N+](=O)[O-])cc2Cl)cc1.[Cl-] (stereo partly drawn)
209	Cc1sc2ncnc(NN)c2c1C
179	COc1cc(OC)cc(-c2n[nH]c(=S)n2N)c1
170	Cc1ccc(-c2csc(NC(=O)CCl)n2)cc1
54	O=C1CCC(=O)N1CCBr
87.5	CS(=O)(=O)c1ccc(O)c(N)c1
94	CC(C)c1ccc2c(c1)C(=O)C(=O)N2
128	Cc1ccc(C(=O)CCC(=O)O)cc1C
183	N/C(=N\O)c1cccc([N+](=O)[O-])c1
261	Cn1c(N)c(C(=O)CC#N)c(=O)n(C)c1=O
155	COc1ccc(NC(=O)c2ccccc2N)c(OC)c1
263	CC1(c2ccc(Br)cc2)NC(=O)NC1=O (configuration not stated)
80	COCCn1cn[nH]c1=S
-21.8	C[N+](C)(CCO)CCCNC(=O)C(O)C(O)C(O)C(O)CO.[Cl-] (configuration not stated)
249	CCOc1ccc(-c2csc(N)n2)cc1

The first 3 entries again:

| SMILES | MP (°C) |
|---|---|
| O=C(CCl)Nc1cc(C(F)(F)F)ccc1Cl | 72 |
| O=C(O)CCCN1C(=S)CSC1=S | 123 |
| Cl.FC1(F)CNCC1(F)F | 194.5 |